Vif-A3G inh – Vif-A3G binding inhibition | HeLa A3G-eYFP + Vif (tagged APOBEC3G with the HIV-1 protein that degrades it), YFP fluorescence, overnight | Q9HC16 | actives 0.076% (n = 410,000) | Potency, µM (series often up to 46.1 µM), inactives show top-dose activity, negative = active, most hits filed as inhibitors | AID 602310; also: % is scaled to controls: 0 for no effect and ±100 for the full control effect; nearly all actives have a fitted effect of over 60% in size
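HeLa cells stably expressing Vif and C-terminally eYFP-tagged A3G, seeded overnight at 37 deg C, then exposed to compound by pintool overnight at 37 deg C. Rise in yellow fluorescence (Ex 488/Em 500-530, Acumen) marks blocked Vif-driven A3G degradation.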
Vif-A3F inh – inhibitors of Vif-A3F interaction; Potency, µM (top dose mostly 46.1 µM), without a hit: at the top dose activity, negative = active; actives 0.2% (n = 390,000); HeLa A3F-eYFP + Vif (tagged APOBEC3F with the HIV-1 protein that degrades it), YFP fluorescence increase; also: % of control where 0% means no effect; nearly all actives have a fitted effect of over 65% in size
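HeLa cells stably expressing Vif plus C-terminally eYFP-tagged A3F were seeded, incubated overnight at 37 deg C, dosed with compound, incubated overnight again at 37 deg C. Yellow fluorescence (Ex 488/Em 500-530) reported blocked Vif-mediated A3F-eYFP degradation.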
Rango-impB inh – prevents formation of the Rango-importin beta complex. Rango CFP/YFP FRET sensor + importin beta, 45 min. Potency, µM (top dose mostly 92.2 µM), without a hit: at the highest dose inhibition of complex formation. actives 0.031% (n = 340,000). AID 540263. Q14974; calls by dose curve;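 also: 0% = DMSO wells and 100% = buffer wells lacking importin beta; nearly all actives have a fitted effect of over 15% in size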
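Inhibition scored from the CFP 486 nm/YFP 530 nm FRET ratio 45 min after adding 0.125 microM importin beta to 50 nM Rango biosensor preincubated 5 min with compound (room temperature, PBS with DTT, Tween-20, BSA). No-importin wells as positive control.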
Epigenetic reg – derepresses silenced GFP reporter in murine cells; actives 0.2% (n = 280,000); murine LDR cells, GFP reporter derepression, 30 h; Potency, µM (series often up to 53.9 µM), for the others: at the top dose GFP activation, actives largely listed as activators; also: % of control where 0% means no effect; nearly all actives have a fitted effect of over 60% in size
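Derepression of a silenced CMV-GFP reporter in murine LDR cells is scored by enumerating GFP-positive cells with a laser-scanning microplate cytometer after 30 hours of treatment at 37 C.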
Rango release inh – inhibition of RanGTP-driven Rango-importin beta dissociation; O95149+P62826; Biochemical FRET Rango-importin beta, RanGTP-induced dissociation; Potency, µM (doses to about 46.1 µM), for the others: top-dose activity change, negative = inhibition; actives 0.071% (n = 340,000); AID 540253; calls by dose curve; also: % of control where 0% means no effect; nearly all actives have a fitted effect of over 45% in size
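Compounds sat 5 min at room temperature with 0.1 uM Rango biosensor plus 0.25 uM importin beta, then FRET pre-read. RanGTP-RCC1 (0.6 uM Ran, 2mM GTP, 0.2 uM RCC1) added for 45 min, and the CFP/YFP post-read measured blocked complex dissociation.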
The depositor's hits bear a star; u = inconclusive; x = no result given; [ ] = dose if it differs, or a comment. The list is not random: actives were taken first. Their share in the collection is about 0.42%. Unless noted, calls follow the shape of the dose curve; as a rule, active = well fitted curve in the direction sought with a large enough effect; inconclusive = small, poorly fitted or top-dose-only effect, or another doubt; inactive = no such curve, though single readings can be large; an effect the other way counts as inactive or inconclusive. Potency is read from the fitted curve at half-maximal effect.

SMILES	Vif-A3G inh	Vif-A3F inh	Rango-impB inh	Epigenetic reg	Rango release inh
NS(=O)(=O)c1cc2c(cc1Cl)NC(CC1CCCC1)NS2(=O)=O (stereo not given)	-2%	-3%	58µM*	0%	-6%
Cc1ccc(NC(=O)/C=C/c2ccc([N+](=O)[O-])s2)cc1	3.2µM*	7.9µM*	-13%	8.9µM*	0.73µM*[inhibitor]
Cc1ccc(C(=O)N/N=C/c2ccc([N+](=O)[O-])s2)cc1	u	-4%	1%	1%	-12%
Cc1cccc(NC(=O)/C=C/c2ccc([N+](=O)[O-])s2)c1	u	7.1µM*	u	7.1µM*	2.1µM*[inhibitor]
Cc1ccc(NC(=O)/C=C/c2ccc([N+](=O)[O-])s2)c(C)c1	u	10µM*	u	-1%	u
COc1ccc2c(c1)c1c(c(=O)n(-c3ccc(C)cc3)c(=O)n1CC(=O)Nc1cc(C)ccc1C)n2C	2%	-1%	x	-2%	x
Cc1ccc(OCC(=O)Nc2ccc3nc(SCC(=O)N4CCCC4)sc3c2)cc1C	5%	2%	x	11%	x
Cc1ccc(NC(=O)Cc2ccc(-n3c(C)nc4cccnc43)cc2)c(Cl)c1	1%	-4%	x	u	x
CC(C)C[C@@H](C=O)NC(=O)[C@H](CC(C)C)NC(=O)[C@H](CC(C)C)NC(=O)OCc1ccccc1	x	x	x	1.3µM*	x
COC(=O)CCC(NC(=O)OCc1ccccc1)C(=O)NC(CC(C)C)C(=O)OC (stereo not given)	2%	3%	3%	-1%	41%
O=c1c2ccccc2nc(/C=C/c2ccc([N+](=O)[O-])o2)n1CCCO	u	22µM*	10%	u	-12%
O=c1c2ccccc2nc(/C=C/c2ccc([N+](=O)[O-])cc2)n1CCCO	-24%	8%	u	-1%	u
CS(=O)(=O)N1N=C(c2ccccc2)CC1c1ccc2c(c1)OCO2 (stereo not given)	10µM*	u	u	-3%	-30%
CS(=O)(=O)Nc1cccc(C2=NN(S(C)(=O)=O)C(c3ccc4c(c3)OCO4)C2)c1 (stereo not given)	u	-16%	-5%	6%	0%
COc1ccc(-c2noc(C3CC(=O)N(c4ccc(C)c(F)c4)C3)n2)c(OC)c1 (stereo not given)	0%	5%	x	4%	x
CC(C)CCNC(=O)c1ccc2c(c1)NC(=O)C(CS(=O)(=O)Cc1cccc(Br)c1)N2 (stereo not given)	u	11µM*	x	u	x
CN(C)CCNC(=O)c1ccc2c(c1)NC(=O)C(CS(=O)(=O)Cc1cccc(Br)c1)N2 (stereo not given)	6%	-8%	x	-1%	x
Oc1c(CN2CCc3ccccc3C2)cc(Cl)c2cccnc12	-13%	u	u	4µM*	u
CN1CCN(Cc2cc(COCc3ccccc3)c3cccnc3c2O)CC1	-6%	u	4%	3.5µM*	-4%
CCCOCc1cc(CN2CCN(c3cccc(Cl)c3)CC2)c(O)c2ncccc12	-3%	u	x	u	x
O=[N+]([O-])c1ccc(O/N=[N+](\[O-])N2CCCCC2)c([N+](=O)[O-])c1	2%	x	x	x	x
Cc1cc(=O)oc2cc(NS(=O)(=O)c3ccccc3)ccc12	-14%	7%	-11%	0%	16µM*
Cc1ccc(OCCCCn2c(CCNC(=O)C3CCCCC3)nc3ccccc32)cc1	6%	x	x	x	x
COc1ccc(/C(O)=C/c2nc3ccc(C(=O)NCCc4cccc(C)c4)cc3[nH]c2=O)cc1OC	0%	u	-4%	18µM*	u
Cc1cc(N(C)C)cc(C)c1/C=C/c1cc[n+](C)c2ccccc12	5%	x	x	x	x
O=C(N/N=C/c1c(O)ccc2ccccc12)Nc1ccccc1	-8%	u	65µM*	x	u
O=C(CSCC(=O)Nc1ccccc1)N/N=C/c1c(O)ccc2ccccc12	-9%	0%	u	-1%	u
CC#C[C@]1(O)CC[C@H]2C3CCC4=CC(=O)CCC4=C3[C@@H](c3ccc(N(C)C)cc3)C[C@@]21C (stereo not given in full)	x	x	x	4%	x
Cc1cc(C(C)(C)CC(C)(C)C)ccc1OCCOCC[N+](C)(C)Cc1ccccc1	3%	6%	65µM*	0%	8%
CCOC(=O)c1ccccc1NS(=O)(=O)c1ccc(N2CCCCS2(=O)=O)cc1	-1%	0%	x	1%	x

Compounds shown so far that contain bromine (two):
SMILES	Vif-A3G inh	Vif-A3F inh	Rango-impB inh	Epigenetic reg	Rango release inh
CC(C)CCNC(=O)c1ccc2c(c1)NC(=O)C(CS(=O)(=O)Cc1cccc(Br)c1)N2 (stereo not given)	u	11µM*	x	u	x
CN(C)CCNC(=O)c1ccc2c(c1)NC(=O)C(CS(=O)(=O)Cc1cccc(Br)c1)N2 (stereo not given)	6%	-8%	x	-1%	x

Reformatted: results already given
Order of results: Vif-A3G inh, Vif-A3F inh, Rango-impB inh, Epigenetic reg, Rango release inh
- O=C(CSCC(=O)Nc1ccccc1)N/N=C/c1c(O)ccc2ccccc12
 : -9%, 0%, u, -1%, u
- CC#C[C@]1(O)CC[C@H]2C3CCC4=CC(=O)CCC4=C3[C@@H](c3ccc(N(C)C)cc3)C[C@@]21C (stereo not given in full)
 : x, x, x, 4%, x
- Cc1cc(C(C)(C)CC(C)(C)C)ccc1OCCOCC[N+](C)(C)Cc1ccccc1
 : 3%, 6%, 65µM*, 0%, 8%

Other compounds follow:
SMILES	Vif-A3G inh	Vif-A3F inh	Rango-impB inh	Epigenetic reg	Rango release inh
COc1cc2c(NC3CCN(C)CC3)nc(N3CCCN(C)CC3)nc2cc1OCC1CCCCN1 (stereo not given)	2%	x	x	x	x
CCN(C(=O)Cn1nc(Cc2cccnc2)c2ccccc2c1=O)c1cc(C)ccc1C	-2%	8%	x	7%	x
CCOC(=O)C1C(=O)C=C(/C=C/c2ccc(N(C)C)cc2)CC1c1ccccc1 (stereo not given)	u	2.8µM*	u	22µM*	u
Cc1cccc2c(C(O)c3cn(C)c4ccccc34)c[nH]c12 (stereo not given)	-21%	x	x	x	x
Cc1nn(C)c2c1c(-c1ccccc1)cc(=O)n2Cc1ccc(F)cc1	-4%	-6%	x	3%	x
CNC(=S)N/N=C(\C)c1ccc(Cl)s1	1%	7.9µM*	1%	0%	32%
CCNC(=S)N/N=C(\C)c1ccc(Cl)s1	-3%	-1%	9%	16%	13%
C#CCOCCOCCOCCNc1nc(N2CCN(C(=O)C([C@@H](C)O)n3cc([C@@H](N)CCCCN)nn3)CC2)nc(N2CCN(C(=O)[C@H](CCCCN)n3cc([C@@H](N)[C@H](C)CC)nn3)CC2)n1 (stereo not given in full)	2%	8%	19%	x	-2%
C#CCOCCOCCOCCNc1nc(N2CCN(C(=O)CCCCCCCCCCNC(=O)[C@H](CCCCN)n3cc(C[C@@H](C)CC)nn3)CC2)nc(N2CCN(C(=O)CCCCCCCCCCNC(=O)[C@H](CCCN=C(N)N)n3cc(C[C@@H](C)CC)nn3)CC2)n1	u	0%	65µM*	x	u
C#CCOCCOCCOCCNc1nc(N2CCN(C(=O)C([C@@H](C)O)n3cc([C@@H](N)CCCCN)nn3)CC2)nc(N2CCN(C(=O)[C@H](CCCN=C(N)N)n3cc(C(N)[C@@H](C)CC)nn3)CC2)n1 (stereo not given in full)	3%	-1%	52µM*	x	-10%
COc1ccc(C(=O)N=c2nc(-c3ccccc3)n(-c3ccccc3)s2)cc1	2%	x	x	x	x
CC(NC(=O)CSc1n[nH]c(-c2ccccc2Cl)n1)c1nc2ccccc2n1C (stereo not given)	1%	4%	x	2%	x
Oc1ccc(Cl)cc1C1C=C(c2ccc3c(c2)OCO3)NC(c2ccc(Cl)cc2)N1 (stereo not given)	-25%	x	x	x	x

Compound activity deposited in PubChem BioAssay by National Center for Advancing Translational Sciences (NCATS).
